Measured values: article PMC3605724 (2013)

Test system: Caco-2 cell monolayers
Assay: Transport studies across Caco-2 cell monolayers

CC(CCc1ccccc1)NCC(O)c1ccc(O)c(C(N)=O)c1 (centres unmarked) [Labetalol]
Decrease in BL-AP direction transport caused by verapamil (0.1 mM verapamil, 0.1 times HDS, AP pH 7.5): 2.3 times
Increase of ER under AP pH 6.5 (AP pH 6.5 compared with AP pH 7.5): 6.2 times
